Paper PMC5015024 (Scientific Reports, 2016)

The chains behind the UniProt entries cited, without tags or fusion partners. Residues count along the entry.
UniProt P01375, 77-233: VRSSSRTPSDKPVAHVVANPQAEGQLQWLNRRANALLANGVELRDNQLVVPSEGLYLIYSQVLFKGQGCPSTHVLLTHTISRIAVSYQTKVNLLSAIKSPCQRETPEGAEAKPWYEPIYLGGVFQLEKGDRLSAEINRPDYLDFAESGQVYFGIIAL

Key:
[1] = target: T1, Recombinant human tumor necrosis factor (TNF), unlabeled (human, UniProt P01375); assay: SPR; Biacore T-200, 25 °C; TNF inhibitor captured (ca. 100 RU) on mouse anti-human IgG (MH16-1) immobilised on a CM5 chip; TNF 50-300 ng/mL in PBS with 0.05% polysorbate-20 flowed at 30 uL/min, 600 s association, 600 s dissociation; constants per binding site on TNF (3 for the antibodies, 1:1 for etanercept); settings: both partners purified
T1 construct: Tumor necrosis factor, human, recombinant; also called soluble TNF; trimeric TNF; source: bought: Life Technologies and Active Bioscience (lyophilized powder, reconstituted)

[2] = target: T1, Recombinant human tumor necrosis factor …; assay: SEC; fluid phase, fluorescence-assisted HP-SEC; serial four-fold dilutions of TNF (0.01-500 ng/ml) with a fixed 50-200 pg/ml of Fab'-488 in PBS with 1 mg/mL IVIG, 25 °C; free Fab'-488 against the molar concentration of binding sites on TNF, 1:1 binding model; settings: both partners purified

Binder	Kd [1]	koff [1]	kon [1]	Kd [2]
infliximab (Remicade), full-length chimeric IgG1 kappa antibody (antibody, V domains shown, heavy chain of infliximab, chimeric IgG1; kappa light chain of infliximab; IgG1 kappa; the constant part beyond the Fab is not in the PDB entry; also called IFX; source: bought: Remicade, MSD) VH: EVKLEESGGGLVQPGGSMKLSCVASGFIFSNHWMNWVRQSPEKGLEWVAEIRSKSINSATHYAESVKGRFTISRDDSKSAVYLQMTDLRTEDTGVYYCSRNYYGSTYDYWGQGTTLTVSS VL: DILLTQSPAILSVSPGERVSFSCRASQFVGSSIHWYQQRTNGSPRLLIKYASESMSGIPSRFSGSGSGTDFTLSINTVESEDIADYYCQQSHSWPFTFGSGTNLEVK	0.138 nM	0.00024 s⁻¹	1.7e+06 M⁻¹ s⁻¹	–
DyLight-488 labeled infliximab Fab' fragment (Fab, V domains shown, heavy chain part of the Fab' of infliximab (as the heavy chain of m7, cut by pepsin); as the light chain of m7; also called infliximab Fab'-488; Fab'-488; source: from Remicade (MSD) with pepsin, then reduction and alkylation; labeled with DyLight 488) VH: EVKLEESGGGLVQPGGSMKLSCVASGFIFSNHWMNWVRQSPEKGLEWVAEIRSKSINSATHYAESVKGRFTISRDDSKSAVYLQMTDLRTEDTGVYYCSRNYYGSTYDYWGQGTTLTVSS VL: DILLTQSPAILSVSPGERVSFSCRASQFVGSSIHWYQQRTNGSPRLLIKYASESMSGIPSRFSGSGSGTDFTLSINTVESEDIADYYCQQSHSWPFTFGSGTNLEVK	–	–	–	0.123 nM
